Earlier results as cited in publication PMC6636548.

Target: Albumin (Homo sapiens) (UniProt P02768)
Assay: SPR, acidic pH

For FcRn (from UniProt P55899), the Kd is listed as 1000 nM.
